The entries are a selection whose mix differs from that of the whole data set. Active and inactive are the calls of the source.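 The calls were made as follows: active = inhibition above the screen-wide mean plus 3 SD, computed separately per campaign (cut at about 16% in these data); inactive = the rest.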
Each molecule was assayed on Heat shock protein HSP 90 (rabbit reticulocyte lysate; luciferase refolding) (assay: inhibitors of HSP90 chaperone activity – cell lysate, luminescence, primary screen (AID 1789;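 also: 0% = DMSO wells and 100% = 60 µM geldanamycin wells; inhibitors lower the luminescence because luciferase stays unfolded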)). Conditions: 3 h, at 5.6 µM, active compounds read high.

| Structure (SMILES) | inhibition |
| --- | --- |
| O=P1(Nc2nc3ccc(Cl)cc3s2)COc2ccccc2O1 (stereo unspecified) | inactive: 1.48% |
| CC(C)(C)C(=O)NC(Sc1ccccc1)C(Cl)(Cl)Cl (stereo unspecified) | inactive: -3.94% |
| CC(=O)c1ccc(N2CC2c2ccncc2)cc1 (stereo unspecified) | inactive: 0.45% |
| CC(=O)Nc1ccc(Oc2c([N+](=O)[O-])cc([N+](=O)[O-])cc2[N+](=O)[O-])cc1 | inactive: 0.9% |
| CC(=O)Nc1ccc([As](=O)(O)O)c(O)c1 | inactive: 0.31% |
| O=C(NC1CCS(=O)(=O)C1)NP(=S)(Oc1ccccc1)Oc1ccccc1 (stereo unspecified) | inactive: 0.26% |
| CCNC(=S)/N=C(\N)N[N+](=O)[O-] | inactive: -1.83% |
| CCOC(=O)NC(Sc1ccccc1)C(Cl)(Cl)Cl (stereo unspecified) | inactive: -3% |
| Cc1ccc(NP(=O)(Oc2cccc(C)c2)Oc2cccc(C)c2)nc1 | inactive: 1.12% |
| c1ccc(-c2nn[nH]n2)c(-c2nn[nH]n2)c1 | inactive: 4.66% |
| Cc1ccc(OP(=O)(Nc2ccccn2)Oc2ccc(C)cc2)cc1 | inactive: -0.47% |
| CC(=O)NC(SC(=S)N(CC(C)C)CC(C)C)C(Cl)(Cl)Cl (stereo unspecified) | active: 19.9% |
| COC(=O)c1cc2c(s1)N=C(c1ccccc1)N(C)P2(=O)N1CCOCC1 (stereo unspecified) | inactive: -1.82% |
| CCC(=O)N1C2C3N(C(=O)CC)C1C1N(C(=O)CC)C(C(N1C(=O)CC)N3C(=O)CC)N2C(=O)CC | inactive: 1.42% |
| O=C(OC1CN2CCC1CC2)c1ccccc1 (stereo unspecified) | inactive: 3.72% |
| CN(C)C(=O)Oc1noc2ccccc12 | inactive: -3.54% |
| O=c1c2cc([N+](=O)[O-])ccc2[nH]c2c([N+](=O)[O-])cc([N+](=O)[O-])cc12 | inactive: 0.96% |
| Cc1ccccc1OP(=O)(Nc1ccccn1)Oc1ccccc1C | inactive: 3.07% |
| CS(=O)(=O)c1cc([N+](=O)[O-])c2no[n+]([O-])c2c1 | inactive: -0.04% |
| O=P(Nc1nccs1)(c1ccccc1)c1nc2ccccc2s1 (stereo unspecified) | active: 26.9% |
| O=P(Nc1nccs1)(Oc1ccccc1)Oc1ccccc1 | inactive: 4.16% |
| CCOP1(=S)c2c(C)nn(CCC#N)c2N=C(c2ccccc2F)N1C (stereo unspecified) | inactive: -1.74% |
| O=C(O)COc1ccc([As](=O)(O)O)cc1[N+](=O)[O-] | inactive: 2.82% |
| Nc1ccccc1[As](=O)(O)c1ccccc1 | inactive: 3.1% |
| O=[N+]([O-])c1ccc2c(c1)nnn2O | inactive: -0.14% |
| CCOP1(=S)c2c(C)nn(CCC#N)c2N=C(c2ccc(F)cc2)N1C (stereo unspecified) | inactive: 4.18% |

| Structure (SMILES) | inhibition |
| --- | --- |
| CS(=O)(=O)c1ccc(Cl)c(NC(=O)COC(=O)C(O)(c2ccccc2)c2ccccc2)c1 | inactive: -3.44% |
| COc1cc(C(=O)NCC2(N3CCOCC3)CCCCC2)cc(Cl)c1OC(C)C | inactive: -4.75% |
| O=[As](O)(O)c1cccnc1 | inactive: 2.74% |
| O=C(OC1CN2CCC1CC2)c1ccc(Cl)cc1 (stereo unspecified) | inactive: 0.66% |
| O=[As](O)(c1cccc(O)c1)c1cccc(O)c1 | inactive: -0.47% |
| Cc1cccc(OCC(=O)OC2CN3CCC2CC3)c1 (stereo unspecified) | inactive: -0.14% |
| CCCOP(=S)(Nc1nc(N)cc(=O)[nH]1)OCCC | inactive: -2.6% |
| Nc1cccc2c([As](=O)(O)O)cccc12 | active: 44.3% |
| Cc1ccc(NCCc2c([N+](=O)[O-])cc([N+](=O)[O-])cc2[N+](=O)[O-])cc1 | inactive: 3.92% |
| CCOP(=O)(Nc1cccc2ccccc12)OCC | inactive: 3.94% |
| COc1cc(C2NCCC3(OCCO3)C2(C)C)cc(OC)c1OC (stereo unspecified) | inactive: 4.47% |
| CCOP(=O)(Nc1ccc(C)cn1)OCC | inactive: -0.27% |
| CCOP(=O)(NC(=NC(C)c1ccccc1)NC(C)c1ccccc1)OCC (stereo unspecified) | inactive: 5.41% |
| CCC1=CC2Cc3nc4ccc(Cl)cc4c(N)c3C(C1)C2 (stereo unspecified) | inactive: 0.74% |
| O=P1(Nc2ccccn2)COc2ccccc2OC1 | inactive: 4.28% |
| CC(C)(C)C(=O)NC(Sc1ncccn1)C(Cl)(Cl)Cl (stereo unspecified) | inactive: 15.2% |
| Clc1n[nH]nc1-c1nn[nH][15n]1 | inactive: 5.6% |
| CC1(CBr)Cn2c(nc3ccccc3c2=O)S1 (stereo unspecified) | inactive: 1.38% |
| O=[As](O)(c1ccccc1Br)c1ccccc1Br | inactive: 1.56% |
| CN(C(=O)Cc1ccc(Cl)c(Cl)c1)[C@@H]1CCCC[C@H]1N1CCCC1 | inactive: -3.37% |
| CC(C)/C=N\N=C(\N)N[N+](=O)[O-] | inactive: -3.19% |
| Cc1ccc(C(=O)OC2CN3CCC2CC3)cc1 (stereo unspecified) | inactive: -0.54% |
| CC1CCC(C(C)C)C(OP(=O)(Nc2ccccn2)c2ccccc2)C1 (stereo unspecified) | inactive: 6.4% |
| Cc1nn(-c2ccccc2)c2c1P(=O)(N1CCOCC1)N(C)C(c1ccccc1)=N2 (stereo unspecified) | inactive: 0.54% |
| O=C(/C=C/c1ccccc1)OC1CN2CCC1CC2 (stereo unspecified) | inactive: 3.56% |

Source: PubChem BioAssay AID1789 (The Scripps Research Institute Molecular Screening Center, 2009)
